Usually pIC50 stands for the IC50 on a negative log10 scale, so that one unit is a factor of ten.

The chains behind the UniProt entries cited, without tags or fusion partners. Residues count along the entry.
UniProt P01889, 25-362: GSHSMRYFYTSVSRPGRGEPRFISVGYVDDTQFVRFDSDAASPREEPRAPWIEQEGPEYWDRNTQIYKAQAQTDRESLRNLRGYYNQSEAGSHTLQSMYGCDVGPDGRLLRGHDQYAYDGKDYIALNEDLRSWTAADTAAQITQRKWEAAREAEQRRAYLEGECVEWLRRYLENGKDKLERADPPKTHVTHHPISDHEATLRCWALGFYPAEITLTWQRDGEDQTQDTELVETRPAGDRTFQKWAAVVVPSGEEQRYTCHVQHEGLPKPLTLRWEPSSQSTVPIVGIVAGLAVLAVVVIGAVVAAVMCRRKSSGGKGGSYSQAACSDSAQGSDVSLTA
UniProt Q30154, 30-266: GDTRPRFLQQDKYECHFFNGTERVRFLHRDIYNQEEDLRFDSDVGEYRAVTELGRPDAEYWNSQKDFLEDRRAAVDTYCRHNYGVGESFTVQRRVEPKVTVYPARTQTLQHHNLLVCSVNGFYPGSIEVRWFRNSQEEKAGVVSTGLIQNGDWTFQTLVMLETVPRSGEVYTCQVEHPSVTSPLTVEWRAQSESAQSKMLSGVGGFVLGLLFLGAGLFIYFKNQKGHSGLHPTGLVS

pIC50: −log10 of the molar value. Like-named read-outs stand apart in the source and are kept apart here. Where only a bound is given, the exact number is not on record here.

Drawing on patent US20060079453A1, “Hla binding peptides and their uses” (priority 2002, published 2006), this text covers IC50 for twelve compounds.

For one experiment, the target named is HLA-A*0202 (Homo sapiens, UniProt P04439, D140Y/D185E/D98H/E176V/E277Q/G131W/G231S/I119L/I121R/I166T/I218V/L180W/L300P/L318F/N151K/N90K/P208A/P217A/Q67R/Q86G/Q94H/R138H/R169H/T345S). Nature of the experiment: biochemical. The experiment is classed as binding.
For the next experiment, the target named is HLA-A*0206 (Homo sapiens, UniProt P04439, D140Y/D185E/D98H/E176V/E277Q/F33Y/G131W/G231S/I119V/I121R/I166T/I218V/L300P/L318F/N151K/N90K/P208A/P217A/Q86G/Q94H/R138H/R169H/T345S). As to the kind of experiment: biochemical. The experiment is classed as binding.
For another experiment, the target named is HLA-A*6802 (Homo sapiens, UniProt P04439, A269V/D140Y/D185E/E176V/E277Q/E87N/F33Y/G231S/I121R/I166T/I218V/L180W/L300P/L318F/N151K/P208A/P217A/Q86R/R138H/R169H/S129P/T345S/V36M). As to the kind of experiment: biochemical. The experiment is classed as binding. Particulars: A*6802 binding affinity (expressed as an IC50).
The target in a further experiment is HLA-B*0702 (Homo sapiens, UniProt P01889). As to the kind of experiment: biochemical. Particulars: B*0702 binding affinity (IC50).
The target of another experiment is HLA-A*0203 (Homo sapiens, UniProt P04439, A173T/D140Y/D185E/D98H/E277Q/G131W/G231S/I119V/I121R/I166T/I218V/L180W/L300P/L318F/N151K/N90K/P208A/P217A/Q86G/Q94H/R138H/R169H/T345S). As to the kind of experiment: biochemical. Format: binding.
The target in a further experiment is HLA-A*0201 (Homo sapiens, UniProt P04439, D140Y/D185E/D98H/E176V/E277Q/G131W/G231S/I119V/I121R/I166T/I218V/L300P/L318F/N151K/N90K/P208A/P217A/Q86G/Q94H/R138H/R169H/T345S). As to the kind of experiment: biochemical. Format: binding.
In experiment [1] the target is HLA-DQ DQA1*0301/B*0302 (DQ8) (Homo sapiens, UniProt P01909+P01920, A209T/A45G/C70Q/D89A/DUP78-78/E183D/E77G/F237L/G63E/H199R/I129T/K197E/L178F/L74F/L98V/Q57E/Q76R/S185I/S97I/T217I/T49S/V73L/Y58L). As to the kind of experiment: biochemical.
Experiment [2] deals with HLA-DQ DQA1*0501/B*0201 (DQ2) (Homo sapiens, UniProt P01909+P01920, A45G/A70V/D89A/E106A/E77G/E98D/H199R/L107V/N214S/P84L/P87L/T103K/T109R/T172A/T60S/V78E/V99I/Y58L/Y62S/Y69I/Y79F). As to the kind of experiment: biochemical.
The next experiment addresses HLA-DR DRB1*0802 (DR8) (Homo sapiens, UniProt P01903+P01911, A100R/A103L/A169T/F76Y/H45Y/I96F/K41T/L162R/M171V/P40S/Q125H/Q178H/Q39Y/Q99D/R218S/R42G/S66Y/V115G/W38E). As to the kind of experiment: biochemical. The experiment is classed as binding.
Experiment [3] deals with HLA-DQ DQA1*0301/B*0301 (DQ7) (Homo sapiens, UniProt P01909+P01920, A209T/C70Q/DUP78-78/E183D/F237L/G63E/I129T/K197E/L178F/L74F/L98V/Q57E/Q76R/S185I/S97I/T49S/V73L). Nature of the experiment: biochemical. Format: binding.
In another experiment the target is HLA-A*0101 (Homo sapiens, UniProt P04439, A114D/A174V/A182V/D101N/D185E/E176A/E190D/L180R/Q94H/R68K/S129P/T187R/V100A/V91M/W191G). As to the kind of experiment: biochemical. As to conditions: Binding affinity to A*0101 (expressed as an IC50).
For a further experiment, the target named is HLA-DR DRB1*1101 (DR11) (Homo sapiens, UniProt P01903+P01911, A100R/A169T/A87E/I96F/K41T/L162R/M171V/P40S/Q125H/Q178H/Q39Y/Q99D/R42S/S66Y/T262R/V115G/W38E). Nature of the experiment: biochemical. The experiment is classed as binding. As to conditions: DRB1 *1101.
The target of a further experiment is HLA-DR DRB1*0401 (DR4) (Homo sapiens, UniProt P01903+P01911, A100K/A169T/F76Y/I96L/K127E/L162R/M171V/N62H/P40V/Q125Y/R42H/S133A/S149N/S66Y/V115G/V209L/W38E). As to the kind of experiment: biochemical. Format: binding. As to conditions: DRB1 *0401.
Another experiment concerns the target HLA-DR DRB5*0101 (DR51) (Homo sapiens, UniProt P01903+Q30154). As to the kind of experiment: biochemical. The experiment is classed as binding. As to conditions: DRB5 *0101.
Another experiment concerns the target HLA-DR DRB1*0101 (DR1) (Homo sapiens, UniProt P01903+P01911, A100R/D57E/F55L/F60I/F76Y/I96L/L162R/M171V/P40L/Q125E/R42F/V115G/Y59C). As to the kind of experiment: biochemical. Format: binding. Particulars: DRB1 *0101.
In the next experiment the target is HLA-DR DRB1*0901 (DR9) (Homo sapiens, UniProt P01903+P01911, A100R/A103E/D57H/D86V/F55Y/F60I/F76Y/I96F/K127E/L162R/M171V/P40D/Q125H/Q99R/R33Q/R42F/S133A/S66N/T210M/V115G/W38K/Y107V/Y59G/Y89S). Nature of the experiment: biochemical. Format: binding. Particulars: DRB1 *0901.
For a further experiment, the target named is HLA-A*2301 (Homo sapiens, UniProt P04439, D101N/D140Y/D185E/E176V/E190D/F33S/G103R/G107R/H175R/I119L/I121M/I306V/K168Q/K335N/L105A/L300P/N151K/N90K/P307H/Q86E/Q94H/R106L/R138H/R89G/T104I/T345S/V100E/W191G/Y123F). Nature of the experiment: biochemical. The experiment is classed as binding.
In a further experiment the target is HLA-A*2402 (Homo sapiens, UniProt P04439, D101N/D140Y/D185E/E176V/E190D/F33S/G103R/G107R/I119L/I121M/I306V/K335N/L105A/L180Q/L300P/N151K/N90K/Q86E/Q94H/R106L/R138H/R89G/T104I/T345S/V100E/W191G/Y123F). Nature of the experiment: MHC molecular binding / Capture assay, IC50: A*2402. As to conditions: read-out: A*2402 binding affinity (IC50).
In the next experiment the target is HLA-A*2902 (Homo sapiens, UniProt P04439, A270S/D101N/D185E/E176V/E277Q/E87Q/F33T/G231S/H175R/I121M/I218V/I322F/K168Q/L300P/L318F/M331R/P208A/P217A/Q86L/T323A/T345S/V100A/V358M). As to the kind of experiment: MHC molecular binding / Capture assay, IC50: A*2902. Particulars: read-out: A*2902 binding affinity (IC50).
The next experiment addresses HLA-A*3002 (Homo sapiens, UniProt P04439, D101N/D140H/D185E/E176R/F33S/G80R/H175R/K168Q/Q94H/R138E/R41S/V100E). The experiment is classed as binding. Particulars: read-out: A*3002 binding affinity (IC50).
Setting [4] is: A*0202 binding affinity (expressed as an IC50).
Where [5] appears, read: A*0206 binding affinity (expressed as an IC50).
[6] abbreviates: A*0203 binding affinity (expressed as an IC50).
Where [7] appears, read: A*0201 binding affinity (expressed as an IC50).

As for `CC(C)C[C@H](NC(=O)[C@@H](NC(=O)[C@@H]1CCCN1C(=O)[C@H](Cc1ccccc1)NC(=O)[C@H](Cc1ccccc1)NC(=O)CNC(=O)[C@H](Cc1c[nH]c2ccccc12)NC(=O)[C@H](CC(C)C)NC(=O)[C@H](C)N)C(C)C)C(=O)O`, the results for the pIC50 on HLA-A*0202 (setting [4]), on HLA-A*0206 (setting [5]) and on HLA-A*6802 were 9.13, 7.82 and 5.82, respectively.
The compound `C[C@H](N)C(=O)N1CCC[C@H]1C(=O)NCC(=O)N1CCC[C@H]1C(=O)NCC(=O)N1CCC[C@H]1C(=O)NCC(=O)N[C@@H](C)C(=O)N[C@@H](C)C(=O)N1CCC[C@H]1C(=O)N[C@@H](C)C(=O)O` showed a pIC50 at HLA-B*0702 of 5.95.
Turning to `CC[C@H](C)[C@H](NC(=O)[C@H](CS)NC(=O)[C@H](CC(C)C)NC(=O)[C@@H]1CCCN1C(=O)[C@@H](NC(=O)[C@H](CC(C)C)NC(=O)[C@@H](N)CCCCN)[C@@H](C)O)C(=O)N[C@H](C(=O)N[C@@H](CC(C)C)C(=O)O)[C@@H](C)O`, the negative-log IC50 (pIC50) at HLA-A*0203 (setting [6]) is 7.64; on HLA-A*0201 (setting [7]), 8.77; on HLA-A*0206 (setting [5]), 8.77; on HLA-A*6802, 5.04.
Take `CC(C)C[C@H](NC(=O)[C@H](CCCCN)NC(=O)[C@H](Cc1ccccc1)NC(=O)[C@H](CS)NC(=O)[C@H](Cc1c[nH]c2ccccc12)NC(=O)CNC(=O)[C@H](Cc1ccccc1)NC(=O)[C@H](CC(C)C)NC(=O)[C@@H](N)CC(C)C)C(=O)O`: the pIC50 was 6.70 at HLA-A*0203, 7.74 at HLA-A*0201, 8.39 against HLA-A*0202 and 6.47 against HLA-A*0206.
Turning to `CSCC[C@H](N)C(=O)N[C@@H](CC(C)C)C(=O)N[C@@H](CC(C)C)C(=O)N[C@@H](CCCNC(=N)N)C(=O)N[C@@H](CC(C)C)C(=O)N[C@@H](CO)C(=O)N[C@@H](CCC(=O)O)C(=O)N1CCC[C@H]1C(=O)N[C@H](C(=O)O)C(C)C`, the pIC50 was 7.32 at HLA-A*0203 (setting [6]); 7.33 at HLA-A*0201 (setting [7]); 7.54 at HLA-A*0202 (setting [4]); 6.16 on HLA-A*0206 (setting [5]); 6.36 at HLA-A*6802.
Turning to `CC[C@H](C)[C@H](NC(=O)[C@@H](NC(=O)[C@H](CCCNC(=N)N)NC(=O)[C@H](CC(C)C)NC(=O)[C@@H]1CCCN1C(=O)[C@H](C)NC(=O)[C@H](C)NC(=O)[C@H](CO)NC(=O)[C@H](C)NC(=O)[C@H](C)NC(=O)[C@H](CC(=O)O)NC(=O)[C@@H]1CCCN1C(=O)[C@@H]1CCCN1)[C@@H](C)O)C(=O)N[C@H](C(=O)N[C@@H](C)C(=O)O)[C@@H](C)O`, the pIC50 was 5.41 in experiment [1], 5.44 in experiment [2], below 4.20 on HLA-DR DRB1*0802 (DR8) and 7.70 in experiment [3].
In the case of `CC(C)C[C@H](NC(=O)[C@H](CC(N)=O)NC(=O)[C@@H]1CCCN1C(=O)[C@H](CC(=O)O)NC(=O)[C@@H](NC(=O)[C@@H]1CCCN1)C(C)C)C(=O)N[C@@H](CCC(=O)O)C(=O)N1CCC[C@H]1C(=O)N[C@@H](Cc1ccc(O)cc1)C(=O)O`, at HLA-A*0101, the pIC50 is 6.71.
As to `CC[C@H](C)[C@H](NC(=O)[C@H](Cc1ccc(O)cc1)NC(=O)[C@H](C)NC(=O)[C@H](CCC(=O)O)NC(=O)[C@H](CCC(=O)O)NC(=O)[C@H](Cc1ccccc1)NC(=O)[C@H](CCC(=O)O)NC(=O)[C@H](CCC(N)=O)NC(=O)[C@H](Cc1ccc(O)cc1)NC(=O)[C@@H](NC(=O)[C@H](CC(=O)O)NC(=O)[C@H](Cc1ccccc1)NC(=O)[C@H](C)NC(=O)[C@H](CC(C)C)NC(=O)[C@@H](N)CCC(N)=O)[C@@H](C)O)C(=O)O`, the pIC50 against HLA-DR DRB1*1101 (DR11) was below 4.81; against HLA-DR DRB1*0401 (DR4) it was below 4.97; in experiment [1], 6.17; in experiment [2] it was 7.46; at HLA-DR DRB1*0802 (DR8), below 4.48; at HLA-DR DRB5*0101 (DR51), below 4.41. In addition, the pIC50 was below 4.05 in [3], below 4.69 against HLA-DR DRB1*0101 (DR1) and below 4.23 on HLA-DR DRB1*0901 (DR9).
As for `CC[C@H](C)[C@H](NC(=O)[C@H](CCCCN)NC(=O)[C@H](CO)NC(=O)[C@H](CC(C)C)NC(=O)[C@H](Cc1ccccc1)NC(=O)[C@@H](N)CCCNC(=N)N)C(=O)N[C@@H](CO)C(=O)N[C@@H](CCC(=O)O)C(=O)N[C@@H](Cc1ccc(O)cc1)C(=O)O`, the pIC50 at HLA-A*2301 was 6.92; on HLA-A*0101, below 4.39.
`CC(C)C[C@H](NC(=O)[C@@H](NC(=O)CNC(=O)[C@@H]1CCCN1C(=O)CNC(=O)[C@@H]1CCCN1C(=O)CNC(=O)[C@H](CCCCN)NC(=O)[C@H](C)NC(=O)[C@H](CC(C)C)NC(=O)[C@@H](N)C(C)C)[C@@H](C)O)C(=O)O`: the pIC50 at HLA-A*0206 (setting [5]) is 4.94.
For the compound PYAVCRVCLLF, on HLA-A*2402, the pIC50 is 6.65.
In the case of RFHNIIRGRW, the pIC50 on HLA-A*2902 is 7.74; at HLA-A*3002, 7.24; on HLA-A*2402 it was 4.27.
